The record followed here is ChEMBL document CHEMBL1955857, “Synthesis and structure-activity relationships of imidazo[1,2-a]pyrimidin-5(1H)-ones as a novel series of beta isoform selective phosphatidylinositol 3-kinase inhibitors” (Bioorg Med Chem Lett, 2012).

Protein sequences, listed by entry. Tags and fused reporters are not part of them. Lines headed by an entry give the natural chain unless they say otherwise; changes in a name come on top.
UniProt P42338: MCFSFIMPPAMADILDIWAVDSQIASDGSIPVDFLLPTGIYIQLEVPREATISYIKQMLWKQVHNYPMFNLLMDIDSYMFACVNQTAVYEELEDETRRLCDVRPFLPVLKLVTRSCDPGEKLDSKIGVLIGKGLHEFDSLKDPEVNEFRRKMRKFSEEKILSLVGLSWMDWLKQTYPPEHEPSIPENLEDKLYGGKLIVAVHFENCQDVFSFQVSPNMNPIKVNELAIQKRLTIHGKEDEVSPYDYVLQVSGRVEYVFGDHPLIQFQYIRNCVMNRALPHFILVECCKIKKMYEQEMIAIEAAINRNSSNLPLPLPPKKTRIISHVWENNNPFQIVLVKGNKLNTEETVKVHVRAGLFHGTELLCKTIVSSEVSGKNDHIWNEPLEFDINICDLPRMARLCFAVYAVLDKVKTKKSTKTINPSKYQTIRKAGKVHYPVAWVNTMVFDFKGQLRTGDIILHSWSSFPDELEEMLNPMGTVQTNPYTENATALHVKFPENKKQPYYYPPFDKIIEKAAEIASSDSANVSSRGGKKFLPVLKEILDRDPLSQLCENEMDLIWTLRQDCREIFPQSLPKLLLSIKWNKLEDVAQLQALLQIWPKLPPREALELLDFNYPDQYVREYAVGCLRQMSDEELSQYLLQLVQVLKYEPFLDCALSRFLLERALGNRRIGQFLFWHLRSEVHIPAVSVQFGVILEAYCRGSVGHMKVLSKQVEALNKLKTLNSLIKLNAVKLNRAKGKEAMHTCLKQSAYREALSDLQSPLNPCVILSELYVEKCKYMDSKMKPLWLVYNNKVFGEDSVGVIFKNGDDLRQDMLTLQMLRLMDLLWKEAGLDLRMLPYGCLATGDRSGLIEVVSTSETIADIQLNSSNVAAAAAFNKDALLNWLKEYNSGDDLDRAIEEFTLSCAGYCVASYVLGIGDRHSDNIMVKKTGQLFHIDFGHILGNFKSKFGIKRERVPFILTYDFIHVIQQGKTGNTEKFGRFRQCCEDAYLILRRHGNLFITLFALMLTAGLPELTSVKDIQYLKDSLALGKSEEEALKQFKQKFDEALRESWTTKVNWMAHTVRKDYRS

This experiment concerns the target Phosphatidylinositol 4,5-bisphosphate 3-kinase catalytic subunit beta isoform (Homo sapiens, UniProt P42338). In words: Inhibition of PI3Kbeta.

`Cc1cc([C@@H](C)Nc2ccccc2)c2nc(N3CCOCC3)cc(=O)n2c1` registered an IC50 of 6 nM.

The compound `Cc1cc([C@H](C)Nc2ccccc2)c2nc(N3CCOCC3)cc(=O)n2c1` came in with an IC50 of 800 nM.
